From PubChem BioAssay (NCI)
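Test compounds were applied to cells in 96-well plates for 48 hours at 5 doses. The concentration for 50% growth inhibition is given as GI50. At the TGI there is no net growth.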

System: MDA-MB-468 breast
Assay: DTP human tumour cell line panel, 48 h

With `O=C(Cl)c1c([N+](=O)[O-])cc([N+](=O)[O-])cc1[N+](=O)[O-]` as the compound, how does the GI50 read?
The GI50 was 1730 nM.

What about the TGI of the same compound?
The TGI was 3600 nM.
